# Experimental data reported in PubChem BioAssay AID624141 (Broad Institute, 2012).
# By UniProt entry, the sequences of proteins in these tests, tags left out.
# UniProt P01106, whole entry: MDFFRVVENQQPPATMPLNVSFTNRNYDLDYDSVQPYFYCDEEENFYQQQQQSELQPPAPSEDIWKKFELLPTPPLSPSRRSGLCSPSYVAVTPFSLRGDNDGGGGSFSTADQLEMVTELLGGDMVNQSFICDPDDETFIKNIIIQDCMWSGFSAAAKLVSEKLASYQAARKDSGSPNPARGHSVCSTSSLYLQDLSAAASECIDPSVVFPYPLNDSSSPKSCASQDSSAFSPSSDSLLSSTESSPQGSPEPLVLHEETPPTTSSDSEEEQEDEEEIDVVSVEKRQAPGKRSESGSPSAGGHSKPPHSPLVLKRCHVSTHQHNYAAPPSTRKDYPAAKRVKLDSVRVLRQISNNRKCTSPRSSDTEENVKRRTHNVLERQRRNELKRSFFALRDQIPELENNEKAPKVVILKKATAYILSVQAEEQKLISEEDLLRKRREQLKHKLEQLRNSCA
# The list shows a part of the results, in another mix than the full data. Some salts and complexes are drawn in separate pieces, as the source files them; their charges need not balance. Calls of active or inactive are those of the source.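 The calls were made as follows: active = spot fluorescence over background with P-value below 7% in all four replicate spots, showing protein binding; inactive = the rest.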
# Molecular target: Myc proto-oncogene protein (Homo sapiens) (UniProt P01106)
# Assay: small molecules binding His-tagged c-Myc – biochemical, small molecule microarray, anti-His fluorescence, primary screen (AID 624141)
row,Structure (SMILES),outcome
1,CN(C(=O)Cc1ccc(Cl)c(Cl)c1)C1CCCCC1N1CCCC1 (stereo unspecified),inactive
2,C/C1=C2N=C(/C=C3N=C(/C(C)=C4\[N-][C@@](C)([C@@H]5N=C1[C@](C)(CCC(=O)NC[C@@H](C)OP(=O)(O)O[C@H]1[C@@H](O)[C@@H](n6cnc7cc(C)c(C)cc76)O[C@@H]1CO)[C@H]5CC(N)=O)[C@@](C)(CC(N)=O)[C@@H]4CCC(N)=O)[C@@](C)(CC(N)=O)[C@@H]\3CCC(N)=O)C(C)(C)[C@@H]/2CCC(N)=O.[C-]#N.[Co+3],inactive
3,C=CC1C=C(C)C/C(=N\P(=O)(Oc2ccccc2)Oc2ccccc2)N1Cc1ccc(OC)cc1 (stereo unspecified),inactive
4,COc1ccc(CN2/C(=N/P(=O)(Oc3ccccc3)Oc3ccccc3)CC(C)=CC2C)cc1 (stereo unspecified),inactive
5,COc1ccc(CN2/C(=N\P(=O)(Oc3ccccc3)Oc3ccccc3)Cc3ccccc3C2C2CC2)cc1 (stereo unspecified),inactive
6,C/C1=C2N=C(/C=C3N=C(/C(C)=C4\[N-][C@@](C)([C@@H]5N=C1[C@](C)(CCC(=O)NCC(C)OP(=O)(O)O[C@@H]1[C@H](O)[C@H](n6cnc7cc(C)c(C)cc76)O[C@H]1CO)[C@H]5CC(N)=O)[C@@](C)(CC(N)=O)[C@@H]4CCC(N)=O)[C@@](C)(CC(N)=O)[C@@H]\3CCC(N)=O)C(C)(C)[C@@H]/2CCC(N)=O.[C-]#N.[Co+3] (stereo partly specified),inactive
